Experimental data as given in ChEMBL document CHEMBL1177712, “Synthesis and characterization of in vitro and in vivo profiles of hydroxybupropion analogues: aids to smoking cessation” (J Med Chem, 2010).

Chains of the proteins cited; added tags and fusions are not shown. Lines headed by an entry give the natural chain unless they say otherwise; changes in a name come on top.
UniProt P30926: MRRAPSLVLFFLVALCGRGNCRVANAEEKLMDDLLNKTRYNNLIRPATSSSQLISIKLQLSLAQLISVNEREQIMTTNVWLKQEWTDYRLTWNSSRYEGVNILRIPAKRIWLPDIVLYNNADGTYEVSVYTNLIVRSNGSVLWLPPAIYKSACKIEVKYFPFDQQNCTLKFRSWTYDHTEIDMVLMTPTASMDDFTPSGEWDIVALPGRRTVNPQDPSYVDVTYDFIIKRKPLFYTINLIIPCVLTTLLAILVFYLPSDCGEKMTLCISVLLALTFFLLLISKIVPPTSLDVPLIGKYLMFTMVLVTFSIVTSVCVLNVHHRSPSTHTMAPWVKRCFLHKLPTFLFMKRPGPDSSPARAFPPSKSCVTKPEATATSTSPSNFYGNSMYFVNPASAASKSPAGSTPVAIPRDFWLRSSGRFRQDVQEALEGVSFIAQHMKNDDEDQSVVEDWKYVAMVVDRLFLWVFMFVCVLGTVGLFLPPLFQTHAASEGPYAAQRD
UniProt P43681: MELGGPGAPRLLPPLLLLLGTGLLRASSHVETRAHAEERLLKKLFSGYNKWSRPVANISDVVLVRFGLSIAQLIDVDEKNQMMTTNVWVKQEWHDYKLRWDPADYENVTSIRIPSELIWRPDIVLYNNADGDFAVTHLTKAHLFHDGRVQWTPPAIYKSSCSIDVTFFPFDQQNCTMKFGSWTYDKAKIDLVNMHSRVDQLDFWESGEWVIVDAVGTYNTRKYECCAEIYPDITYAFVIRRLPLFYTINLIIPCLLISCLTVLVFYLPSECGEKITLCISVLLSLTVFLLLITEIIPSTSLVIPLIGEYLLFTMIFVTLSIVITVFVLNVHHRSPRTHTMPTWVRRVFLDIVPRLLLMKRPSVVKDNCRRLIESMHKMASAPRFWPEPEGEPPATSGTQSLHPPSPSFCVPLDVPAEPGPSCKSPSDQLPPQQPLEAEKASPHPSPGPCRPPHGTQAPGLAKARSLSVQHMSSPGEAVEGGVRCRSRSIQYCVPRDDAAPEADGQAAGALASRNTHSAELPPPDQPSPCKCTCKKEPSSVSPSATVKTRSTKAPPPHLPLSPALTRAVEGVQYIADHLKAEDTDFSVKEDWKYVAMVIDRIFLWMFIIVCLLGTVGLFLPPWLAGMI
UniProt P17787: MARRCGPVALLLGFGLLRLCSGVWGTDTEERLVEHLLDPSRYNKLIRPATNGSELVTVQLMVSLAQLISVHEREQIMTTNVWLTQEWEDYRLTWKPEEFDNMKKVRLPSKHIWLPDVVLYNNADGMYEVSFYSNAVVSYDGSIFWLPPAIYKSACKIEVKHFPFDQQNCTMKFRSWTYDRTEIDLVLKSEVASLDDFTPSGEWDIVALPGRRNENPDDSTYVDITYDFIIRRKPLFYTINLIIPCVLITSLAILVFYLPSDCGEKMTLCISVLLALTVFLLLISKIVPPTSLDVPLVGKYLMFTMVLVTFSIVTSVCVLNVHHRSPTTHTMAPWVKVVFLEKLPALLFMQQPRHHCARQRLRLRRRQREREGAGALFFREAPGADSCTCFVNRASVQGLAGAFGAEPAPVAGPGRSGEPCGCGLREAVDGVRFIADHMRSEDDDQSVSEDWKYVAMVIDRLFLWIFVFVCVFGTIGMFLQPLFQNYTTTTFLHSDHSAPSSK

What was measured:
[1] = target: Neuronal acetylcholine receptor; alpha4/beta4 (Homo sapiens, UniProt P30926+P43681); test: Agonist activity at alpha4beta4 nicotinic receptor in human SH-EP1 cells assessed as induction of radiolabeled Rb+ influx at 0.005 to 100 uM by liquid scintillation counting; type: functional, cell-based
[2] = target: Neuronal acetylcholine receptor; alpha4/beta2 (Homo sapiens, UniProt P17787+P43681); test: Agonist activity at alpha4beta2 nicotinic receptor in human SH-EP1 cells assessed as induction of radiolabeled Rb+ influx at 0.005 to 100 uM by liquid scintillation counting; type: functional, cell-based
SH-EP1 = test: Selectivity ratio of IC50 for alpha4beta2 nicotinic receptor in human SH-EP1 cells to IC50 for IC50 for human NET; type: cell-based

SMILES	Activity [1]	Activity [2]	Ratio IC50 (SH-EP1)
C[C@@H]1NC(C)(C)CO[C@@]1(O)c1ccc(-c2ccccc2)cc1	inactive	inactive	–
C[C@@H]1NC(C)(C)CO[C@@]1(O)c1ccccc1	inactive	inactive	12

The source made the active and inactive calls. The rule behind the calls is not given here.
